Sequences of proteins named here, by UniProt entry; tags and fusion partners are left off.
UniProt P61168, whole entry: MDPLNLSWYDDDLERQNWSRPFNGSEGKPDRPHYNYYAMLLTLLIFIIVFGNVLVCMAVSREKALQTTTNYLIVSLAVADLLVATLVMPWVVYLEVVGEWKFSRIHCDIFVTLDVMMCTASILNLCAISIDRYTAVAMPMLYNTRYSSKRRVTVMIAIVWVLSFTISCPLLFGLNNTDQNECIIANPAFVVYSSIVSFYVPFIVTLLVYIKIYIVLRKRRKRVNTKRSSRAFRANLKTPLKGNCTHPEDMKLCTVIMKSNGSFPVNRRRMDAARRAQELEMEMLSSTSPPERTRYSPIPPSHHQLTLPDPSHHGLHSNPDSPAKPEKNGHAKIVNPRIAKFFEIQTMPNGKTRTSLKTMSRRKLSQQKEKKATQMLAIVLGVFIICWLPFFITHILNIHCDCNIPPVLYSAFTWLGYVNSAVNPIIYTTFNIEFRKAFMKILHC

According to article PMC7101055 (ACS Chemical Neuroscience, 2020):

Target: D2 receptors on substantia nigra dopamine neurons (Mus musculus, UniProt P61168)
Type: cell-based
Conditions: CyHQ-sulpiride 5 μM, 1 s flash; quinpirole 300 nM or dopamine 1 μM

CCCN1CCC[C@@H]2Cc3n[nH]cc3C[C@H]21 [quinpirole]
time constant of decay τ of D2 current after CyHQ-sulpiride photolysis: 635 ms
